Bioassay records (PubChem BioAssay)
Apoferritin bind – candidate novel general anesthetic via apoferritin binding | AID 485281 | P02791 | apoferritin/1-aminoanthracene competitive binding, fluorescence | Potency, µM (highest dose often 77.5 µM), inactives show top-dose activity change, negative = displacement, actives largely listed as inhibitors | 350,000 compounds, 0.074% hits; further: potency means the concentration at half of the fitted maximal effect; on the % scale 0 is the no-effect control and ±100 the full control effect; nearly all actives have a fitted effect of over 20% in size
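Concentration-response curves derived by four-parameter Hill fitting of normalized fluorescence, where compounds displaced 1-AMA from 10 uM horse apoferritin following a brief 10 min room-temperature incubation; propofol titration acted as positive control.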
ClpP mod – qHTS Assay for Activators of ClpP | AID 651965, 2013 | purified B. subtilis ClpP, FRET peptide cleavage, 20 min | Potency, µM (titrated, usually from 57.5 µM), without a hit: top-dose activity change, negative = active | 340,000 compounds, 1.9% hits | ATP-dependent Clp protease proteolytic subunit (Bacillus subtilis (strain 168)), P80244; active means well fitted falling curve with a large enough effect; inconclusive means small, poorly fitted or top-dose-only effect; inactive means no such curve, though single readings can be large or run the other way; further: potency means the concentration at half of the fitted maximal effect; the source files actives as falling curves though it sought activators and does not explain the sign; nearly all actives have a fitted effect of over 65% in size
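Buffer: 100 mM Tris/HCl pH8, 100 mM KCl, 0.05% low protease BSA, 2.5% glycerol, 0.01% Tween-20. ClpP 10 microg/mL final; 20 min RT; delta FRET normalized to ADEP and DMSO controls.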
rTrxR1 inhibitor – blocks rat thioredoxin reductase 1 | 390,000 compounds, 1% hits | recombinant rTrxR1, NADPH fluorescence consumption, selenite substrate | O89049 | AID 588453 | Potency, µM (series often up to 114 µM), without a hit: at the top dose activity change, negative = inhibition, usual class: inhibitors; further: potency means the concentration at half of the fitted maximal effect; on the % scale 0 is the no-effect control and ±100 the full control effect; nearly all actives have a fitted effect of over 65% in size
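Rat TrxR1 (90 nM in the dispensed reagent) was pre-reduced with 400 uM NADPH for 5 min at room temperature, then incubated with compound for 15 min. After 400 uM selenite was added, NADPH fluorescence (Ex 340/Em 450 nm) was followed for 8 min.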
TrxR1 substrate – substrates of rat thioredoxin reductase 1. purified TrxR1 substrate turnover, NADPH consumption readout. Potency, µM (highest dose often 114 µM), without a hit: at the top dose activity change, negative = substrate turnover. 390,000 compounds, 0.01% hits. AID 588456; further: potency means the concentration at half of the fitted maximal effect; on the % scale 0 is the no-effect control and ±100 the full control effect; nearly all actives have a fitted effect of over 50% in size
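Rat TrxR1, dispensed at 90 nM, was prereduced with 400 uM NADPH (final) for 5 min at ~22 deg C, then incubated with compound 15 min before 400 uM selenite. A first-read NADPH fluorescence drop versus no-compound background flagged substrates.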
miR-21 reporter – miR-21 reporter, rising signal | AID 2288 | HeLa miR-21 FLuc reporter, luciferase, 48 h | 340,000 tested, under 10 active | Potency, µM (doses to about 38.3 µM), for inactives: at the top dose reporter change, positive = more light; active = well fitted rising curve with a large enough effect; inconclusive = small, poorly fitted or top-dose-only effect; inactive = no such curve, though single readings can be large or run the other way;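 note: % of control where 0% means no effect; miR-21 action dims this reporter so a rising signal means less miR-21 action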
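HeLa miR-21-FLuc reporter line, endogenous miR-21; 2000 cells/well in DMEM/10% FBS; compound titration up to ~40uM final, 48 h, 37 degree Celsius; luciferase detection reagent, 15 min lysis, CCD luminescence.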
* marks the source's active call; other numbers are inactive results; ? = inconclusive; nt = no result given; [ ] = remark or other dose. Only some compounds are listed: those with a hit (about 2.5% of all), similar ones and a draw of the others. Unless noted, the call rests on the fitted dose curve; in most records, active means well fitted curve in the direction sought with a large enough effect; inconclusive means small, poorly fitted or top-dose-only effect, or another doubt; inactive means no such curve, though single readings can be large; an effect the other way counts as inactive or inconclusive.

By UniProt entry, the sequences of proteins in these tests, tags left out.
ATP-dependent Clp protease proteolytic subunit (Bacillus subtilis (strain 168)), P80244, UniProt P80244, whole entry, looked up: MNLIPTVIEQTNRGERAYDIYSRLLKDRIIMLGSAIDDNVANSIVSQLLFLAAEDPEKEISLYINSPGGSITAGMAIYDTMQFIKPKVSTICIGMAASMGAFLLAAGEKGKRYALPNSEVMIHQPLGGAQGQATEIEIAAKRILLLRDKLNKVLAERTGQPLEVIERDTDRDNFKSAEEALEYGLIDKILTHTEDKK

Assay codes – A = Apoferritin bind; B = ClpP mod; C = rTrxR1 inhibitor; D = TrxR1 substrate; E = miR-21 reporter
1: CSc1ccc(/C=N/NC(=O)CNc2cccc3ccccc23)cc1
  A: ? | B: nt | C: 12.8%[57.1 µM] | D: 8.7% | E: -6.7%

2: CSc1ccc(CNc2cccc3ccccc23)cc1
  A: 11.2% | B: 28.2µM* | C: 40.2% | D: 86.4% | E: 8.4%

3: O=C(c1ccccc1)N1N=C(c2ccccc2)CC1c1ccccc1[N+](=O)[O-] (stereo not drawn)
  A: -4.5% | B: 25.1µM* | C: -16.6% | D: -16.1% | E: -6.3%

4: COc1cccc2[nH]c3c(N4CCc5ccccc5C4)ncnc3c12
  A: 1.6% | B: nt | C: 13.8%[57.1 µM] | D: 11.5% | E: 0.8%

5: c1ccc2c(c1)CCN(c1ncnc3c1[nH]c1ccccc13)C2
  A: 5.0% | B: 20µM* | C: -12.0% | D: 6.3% | E: ?

6: COc1cccc2[nH]c3c(N4CCC5(CC4)OCCO5)ncnc3c12
  A: 8.9% | B: 4.0% | C: ? | D: 227.8% | E: -12.4%

7: c1ccc2c(c1)[nH]c1c(N3CCC4(CC3)OCCO4)ncnc12
  A: -1.8% | B: 28.2µM* | C: -5.6% | D: 16.5% | E: 17.8%

8: CCCC(=O)N(Cc1cc(=O)[nH]c2ccccc12)c1ccc(C)cc1C
  A: -3.1% | B: -13.4% | C: 4.9% | D: -2.6% | E: -0.6%

9: Cc1ccc(N(Cc2cc(=O)[nH]c3ccccc23)C(=O)CCl)c(C)c1
  A: -8.7% | B: nt | C: 79.4µM* | D: 5.1% | E: ?

10: COc1ccc(C2CC(=O)Nc3c2c(C)nn3-c2nncc(-c3ccc(C)cc3)n2)c(OC)c1OC (stereo not drawn)
  A: 46.2% | B: -0.9% | C: 5.1% | D: -9.7% | E: 4.5%

Three entries already listed, ordered by their value in miR-21 reporter, high to low:
item	compound	miR-21 reporter
7	c1ccc2c(c1)[nH]c1c(N3CCC4(CC3)OCCO4)ncnc12	17.8%
3	O=C(c1ccccc1)N1N=C(c2ccccc2)CC1c1ccccc1[N+](=O)[O-] (stereo not drawn)	-6.3%
1	CSc1ccc(/C=N/NC(=O)CNc2cccc3ccccc23)cc1	-6.7%

Other entries
Assay codes – A = Apoferritin bind; B = ClpP mod; C = rTrxR1 inhibitor; D = TrxR1 substrate; E = miR-21 reporter
11: CSc1nc2c(c(=O)[nH]1)C(c1ccccc1)C1=C(CC(C)(C)CC1=O)N2 (stereo not drawn)
  A: -0.1% | B: nt | C: 36.5%[57.1 µM] | D: 61.5%[57.1 µM] | E: 1.6%

12: CC1(C)CC(=O)C2=C(C1)Nc1nc(SCCN3CCOCC3)[nH]c(=O)c1C2c1cccs1 (stereo not drawn)
  A: -7.0% | B: 31.6µM* | C: -0.5%[57.1 µM] | D: 0.3%[57.1 µM] | E: 6.0%

13: CCSc1nc2c(c(=O)[nH]1)C(c1ccc(C)cc1)C1=C(CCCC1=O)N2 (stereo not drawn)
  A: -7.9% | B: nt | C: 7.6%[57.1 µM] | D: 9.7%[57.1 µM] | E: -6.5%

14: Cc1ccc(CSc2nc3c(c(=O)[nH]2)C(c2ccncc2)C2=C(CCCC2=O)N3)cc1 (stereo not drawn)
  A: 4.0% | B: 14.1µM* | C: 12.3% | D: 54.9% | E: 0.5%

15: CSc1nc2c(c(=O)[nH]1)C(c1cccs1)C1=C(CCCC1=O)N2 (stereo not drawn)
  A: -15.4% | B: 22.4µM* | C: -17.0% | D: 12.2% | E: -1.4%

16: O=c1c2ccccc2sc2nc(CCl)nn12
  A: nt | B: 15.8µM* | C: ? | D: 5.5% | E: nt

17: O=c1cc(CCl)nc2sc3ccccc3n12
  A: -2.9% | B: -2.5% | C: ? | D: 2.4% | E: 1.5%

18: CCOc1ccc(C(=O)N2CCc3cc(OC)c(OC)cc3C2COc2ccc3c(C)cc(=O)oc3c2)cc1OCC (stereo not drawn)
  A: ? | B: -3.5% | C: 18.2% | D: 21.0% | E: -20.3%

19: Cc1ccc2ncnc(NCc3ccco3)c2c1
  A: nt | B: -5.1% | C: 79.4µM* | D: -3.8% | E: nt

20: Clc1ccc2c(NCc3ccco3)ncnc2c1
  A: -2.5% | B: -1.7% | C: -1.5%[57.1 µM] | D: -5.1% | E: 2.8%

21: Cc1cccc(Nc2nc(NCc3ccco3)c3ccccc3n2)c1
  A: -15.3% | B: 20µM* | C: -16.5% | D: 4.1% | E: ?

22: CCCCNC(=O)c1ccc2nc(-c3ccco3)c(-c3ccco3)nc2c1
  A: -13.2% | B: -6.5% | C: 2.82µM* | D: -3.0% | E: -0.9%

23: O=C(NCCCO)c1ccc2nc(-c3ccco3)c(-c3ccco3)nc2c1
  A: 129.2% | B: -13.5% | C: 2.82µM* | D: -8.6% | E: 2.3%

24: Cc1cc[n+](C2CCCCC2)c2ccccc12
  A: nt | B: -2.7% | C: 8.7% | D: -0.9% | E: nt

25: CCCCn1nnc(NC(=O)c2ccc(-c3cccc(Cl)c3)o2)n1
  A: ? | B: 31.6µM* | C: -4.0% | D: 19.1% | E: -28.0%

26: O=C(Nc1ccccc1N1CCCCC1)c1ccc(-c2cccc(Cl)c2)o1
  A: -6.0% | B: -0.9% | C: 11.8%[57.1 µM] | D: 7.8%[57.1 µM] | E: 1.0%

27: O=C(Nc1cccc2nsnc12)c1ccc(-c2cccc(Cl)c2)o1
  A: -15.9% | B: -14.6% | C: 35.5µM* | D: -7.5% | E: -17.9%

28: COc1cccc(Cn2cc(C(=O)c3ccc(Cl)cc3)c(=O)c3ccccc32)c1
  A: -11.4% | B: 0.1% | C: 28.9% | D: 2.9% | E: 14.4%

29: COc1cc(O)c2c(c1)oc(=O)c1c3cc(O)c(O)cc3oc21
  A: 71.4% | B: nt | C: nt | D: nt | E: nt
